Laboratory results published in patent US6979471B1, “Composition comprising pharmaceutical/nutraceutical agent and a bio-enhancer obtained from Glycyrrhiza glabra” (Council of Scientific and Industrial Research, priority 2000, dated 2005).

Test: Bioavailability test through biological membrane (U-tube, OD in receiving tube)
Conditions: A360 nm

OD measured as Absorbance across the membrane in receiving tube (after 1 hr): 0.0250 | OD measured as Absorbance across the membrane in receiving tube (after 2 hr): 0.0556 | OD measured as Absorbance across the membrane in receiving tube (after 3 hr): 0.0714 | OD measured as Absorbance across the membrane in receiving tube (after 4 hr): 0.1283 | OD measured as Absorbance across the membrane in receiving tube (after 5 hr): 0.1370 | OD measured as Absorbance across the membrane in receiving tube (after 6 hr): 0.1595
Substance: Vitamin B-12
